This assay has as its target TLN1 PTB (Homo sapiens, UniProt Q9Y490). The class given is binding.

Chains of the proteins cited; added tags and fusions are not shown. Residues count along the entry.
UniProt Q9Y490, 309-401: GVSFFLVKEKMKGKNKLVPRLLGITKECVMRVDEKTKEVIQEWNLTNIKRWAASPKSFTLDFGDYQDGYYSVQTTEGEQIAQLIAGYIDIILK

As for TDERSWVYSPLHYS(averaged) D2D, the “DMS-derived PSSM value, averaged over the two overlapping peptides” value amounted to 0.1107.
For “TDERSWVYSPLHYS(averaged) D2E (TEERSWVYSPLHYS)”, the “DMS-derived PSSM value, averaged over the two overlapping peptides” value is recorded as 0.02561.
With “TDERSWVYSPLHYS(averaged) D2F (TFERSWVYSPLHYS)”, the “DMS-derived PSSM value, averaged over the two overlapping peptides” value turned out to be 0.04563.
As to “TDERSWVYSPLHYS(averaged) D2G (TGERSWVYSPLHYS)”, the “DMS-derived PSSM value, averaged over the two overlapping peptides” value stood at 0.1597.
Take “TDERSWVYSPLHYS(averaged) D2H (THERSWVYSPLHYS)”: the “DMS-derived PSSM value, averaged over the two overlapping peptides” value worked out at 0.07224.
As to “TDERSWVYSPLHYS(averaged) D2I (TIERSWVYSPLHYS)”, the “DMS-derived PSSM value, averaged over the two overlapping peptides” value was found to be 0.0151.
Take “TDERSWVYSPLHYS(averaged) D2K (TKERSWVYSPLHYS)”: the “DMS-derived PSSM value, averaged over the two overlapping peptides” value was 0.001257.
The same measure for “TDERSWVYSPLHYS(averaged) D2L (TLERSWVYSPLHYS)”: 0.07833; for “TDERSWVYSPLHYS(averaged) D2M (TMERSWVYSPLHYS)”: 0.01089; for “TDERSWVYSPLHYS(averaged) D2N (TNERSWVYSPLHYS)”: 0.01696.
As for “TDERSWVYSPLHYS(averaged) D2P (TPERSWVYSPLHYS)”, the “DMS-derived PSSM value, averaged over the two overlapping peptides” value came to 0.02635.
In the case of “TDERSWVYSPLHYS(averaged) D2Q (TQERSWVYSPLHYS)”, the “DMS-derived PSSM value, averaged over the two overlapping peptides” value came to 0.04535.
On to “TDERSWVYSPLHYS(averaged) D2R (TRERSWVYSPLHYS)”, for which the “DMS-derived PSSM value, averaged over the two overlapping peptides” value came out at 0.04457.
For “TDERSWVYSPLHYS(averaged) D2S (TSERSWVYSPLHYS)”, the “DMS-derived PSSM value, averaged over the two overlapping peptides” value is given as 0.06786.
In the case of “TDERSWVYSPLHYS(averaged) D2T (TTERSWVYSPLHYS)” it was 0.03.
As to “TDERSWVYSPLHYS(averaged) D2V (TVERSWVYSPLHYS)”, the “DMS-derived PSSM value, averaged over the two overlapping peptides” value is 0.02758.
In the case of “TDERSWVYSPLHYS(averaged) D2W (TWERSWVYSPLHYS)” it was 0.02336; in that of “TDERSWVYSPLHYS(averaged) D2Y (TYERSWVYSPLHYS)”, 0.01192; in that of “TDERSWVYSPLHYS(averaged) E3A (TDARSWVYSPLHYS)”, 0.01393.
In the case of “TDERSWVYSPLHYS(averaged) E3D (TDDRSWVYSPLHYS)” it was 0.007357; in that of TDERSWVYSPLHYS(averaged) E3E, 0.1077; in that of “TDERSWVYSPLHYS(averaged) E3F (TDFRSWVYSPLHYS)”, 0.06443.
In the case of “TDERSWVYSPLHYS(averaged) E3G (TDGRSWVYSPLHYS)” it was 0.03744.
Turning to “TDERSWVYSPLHYS(averaged) E3H (TDHRSWVYSPLHYS)”, the “DMS-derived PSSM value, averaged over the two overlapping peptides” value came to 0.03203.
As for “TDERSWVYSPLHYS(averaged) E3I (TDIRSWVYSPLHYS)”, the “DMS-derived PSSM value, averaged over the two overlapping peptides” value turned out to be 0.06072.
As to “TDERSWVYSPLHYS(averaged) E3K (TDKRSWVYSPLHYS)”, the “DMS-derived PSSM value, averaged over the two overlapping peptides” value is recorded as 0.02425.
“TDERSWVYSPLHYS(averaged) E3L (TDLRSWVYSPLHYS)”: the “DMS-derived PSSM value, averaged over the two overlapping peptides” value is recorded as 0.1424.
Regarding “TDERSWVYSPLHYS(averaged) E3M (TDMRSWVYSPLHYS)”, the “DMS-derived PSSM value, averaged over the two overlapping peptides” value was found to be 0.04008.
As for “TDERSWVYSPLHYS(averaged) E3N (TDNRSWVYSPLHYS)”, the “DMS-derived PSSM value, averaged over the two overlapping peptides” value amounted to 0.07542.
Turning to “TDERSWVYSPLHYS(averaged) E3P (TDPRSWVYSPLHYS)”, the “DMS-derived PSSM value, averaged over the two overlapping peptides” value is 0.09251.
In the case of “TDERSWVYSPLHYS(averaged) E3Q (TDQRSWVYSPLHYS)”, the “DMS-derived PSSM value, averaged over the two overlapping peptides” value came out at 0.008672.
Turning to “TDERSWVYSPLHYS(averaged) E3R (TDRRSWVYSPLHYS)”, the “DMS-derived PSSM value, averaged over the two overlapping peptides” value amounted to 0.01375.
For “TDERSWVYSPLHYS(averaged) E3S (TDSRSWVYSPLHYS)”, the “DMS-derived PSSM value, averaged over the two overlapping peptides” value stood at 0.04543.
Take “TDERSWVYSPLHYS(averaged) E3T (TDTRSWVYSPLHYS)”: the “DMS-derived PSSM value, averaged over the two overlapping peptides” value stood at 0.03892.
Consider “TDERSWVYSPLHYS(averaged) E3V (TDVRSWVYSPLHYS)”, for which the “DMS-derived PSSM value, averaged over the two overlapping peptides” value amounted to 0.02019.
Regarding “TDERSWVYSPLHYS(averaged) E3W (TDWRSWVYSPLHYS)”, the “DMS-derived PSSM value, averaged over the two overlapping peptides” value stood at 0.151.
In the case of “TDERSWVYSPLHYS(averaged) E3Y (TDYRSWVYSPLHYS)” it was 0.02384; in that of “TDERSWVYSPLHYS(averaged) H12A (TDERSWVYSPLAYS)”, 0.03866; in that of “TDERSWVYSPLHYS(averaged) H12D (TDERSWVYSPLDYS)”, 0.05292.
With “TDERSWVYSPLHYS(averaged) H12E (TDERSWVYSPLEYS)”, the “DMS-derived PSSM value, averaged over the two overlapping peptides” value amounted to 0.06074.
With “TDERSWVYSPLHYS(averaged) H12F (TDERSWVYSPLFYS)”, the “DMS-derived PSSM value, averaged over the two overlapping peptides” value is listed as 0.02314.
On to “TDERSWVYSPLHYS(averaged) H12G (TDERSWVYSPLGYS)”, for which the “DMS-derived PSSM value, averaged over the two overlapping peptides” value came to 0.05345.
On to TDERSWVYSPLHYS(averaged) H12H, for which the “DMS-derived PSSM value, averaged over the two overlapping peptides” value is recorded as 0.1119.
As to “TDERSWVYSPLHYS(averaged) H12I (TDERSWVYSPLIYS)”, the “DMS-derived PSSM value, averaged over the two overlapping peptides” value was 0.01258.
For “TDERSWVYSPLHYS(averaged) H12K (TDERSWVYSPLKYS)”, the “DMS-derived PSSM value, averaged over the two overlapping peptides” value is 0.01815.
As for “TDERSWVYSPLHYS(averaged) H12L (TDERSWVYSPLLYS)”, the “DMS-derived PSSM value, averaged over the two overlapping peptides” value is given as 0.02664.
As for “TDERSWVYSPLHYS(averaged) H12M (TDERSWVYSPLMYS)”, the “DMS-derived PSSM value, averaged over the two overlapping peptides” value is reported as 0.1291.
The same measure for “TDERSWVYSPLHYS(averaged) H12N (TDERSWVYSPLNYS)”: 0.0707.
In the case of “TDERSWVYSPLHYS(averaged) H12P (TDERSWVYSPLPYS)” it was 0.03454.
As to “TDERSWVYSPLHYS(averaged) H12Q (TDERSWVYSPLQYS)”, the “DMS-derived PSSM value, averaged over the two overlapping peptides” value came out at 0.07055.
In the case of “TDERSWVYSPLHYS(averaged) H12R (TDERSWVYSPLRYS)” it was 0.01665; in that of “TDERSWVYSPLHYS(averaged) H12S (TDERSWVYSPLSYS)”, 0.03703; in that of “TDERSWVYSPLHYS(averaged) H12T (TDERSWVYSPLTYS)”, 0.1476.
As to “TDERSWVYSPLHYS(averaged) H12V (TDERSWVYSPLVYS)”, the “DMS-derived PSSM value, averaged over the two overlapping peptides” value came out at 0.0733.
Take “TDERSWVYSPLHYS(averaged) H12W (TDERSWVYSPLWYS)”: the “DMS-derived PSSM value, averaged over the two overlapping peptides” value was determined as 0.008707.
In the case of “TDERSWVYSPLHYS(averaged) H12Y (TDERSWVYSPLYYS)” it was 0.01354; in that of “TDERSWVYSPLHYS(averaged) L11A (TDERSWVYSPAHYS)”, 0.02868; in that of “TDERSWVYSPLHYS(averaged) L11D (TDERSWVYSPDHYS)”, 0.
In the case of “TDERSWVYSPLHYS(averaged) L11E (TDERSWVYSPEHYS)”, the “DMS-derived PSSM value, averaged over the two overlapping peptides” value worked out at 0.01176.
The same measure for “TDERSWVYSPLHYS(averaged) L11F (TDERSWVYSPFHYS)”: 0.03876; for “TDERSWVYSPLHYS(averaged) L11G (TDERSWVYSPGHYS)”: 0.02345; for “TDERSWVYSPLHYS(averaged) L11H (TDERSWVYSPHHYS)”: 0.01184.
In the case of “TDERSWVYSPLHYS(averaged) L11I (TDERSWVYSPIHYS)” it was 0.1133; in that of “TDERSWVYSPLHYS(averaged) L11K (TDERSWVYSPKHYS)”, 0.003935; in that of TDERSWVYSPLHYS(averaged) L11L, 0.2428.
For the substance “TDERSWVYSPLHYS(averaged) L11M (TDERSWVYSPMHYS)”, the “DMS-derived PSSM value, averaged over the two overlapping peptides” value came to 0.07752.
“TDERSWVYSPLHYS(averaged) L11N (TDERSWVYSPNHYS)”: the “DMS-derived PSSM value, averaged over the two overlapping peptides” value worked out at 0.008044.
“TDERSWVYSPLHYS(averaged) L11P (TDERSWVYSPPHYS)”: the “DMS-derived PSSM value, averaged over the two overlapping peptides” value is reported as 0.004815.
For “TDERSWVYSPLHYS(averaged) L11Q (TDERSWVYSPQHYS)”, the “DMS-derived PSSM value, averaged over the two overlapping peptides” value is 0.006573.
The same measure for “TDERSWVYSPLHYS(averaged) L11R (TDERSWVYSPRHYS)”: 0.02234.
As to “TDERSWVYSPLHYS(averaged) L11S (TDERSWVYSPSHYS)”, the “DMS-derived PSSM value, averaged over the two overlapping peptides” value is 0.02133.
Take “TDERSWVYSPLHYS(averaged) L11T (TDERSWVYSPTHYS)”: the “DMS-derived PSSM value, averaged over the two overlapping peptides” value amounted to 0.05838.
For “TDERSWVYSPLHYS(averaged) L11V (TDERSWVYSPVHYS)”, the “DMS-derived PSSM value, averaged over the two overlapping peptides” value is recorded as 0.05342.
In the case of “TDERSWVYSPLHYS(averaged) L11W (TDERSWVYSPWHYS)” it was 0.2188.
Take “TDERSWVYSPLHYS(averaged) L11Y (TDERSWVYSPYHYS)”: the “DMS-derived PSSM value, averaged over the two overlapping peptides” value came to 0.0542.

For the origin of these results see publication PMC12102759 (Protein Science : A Publication of the Protein Society, 2025).
